The values below are quoted from earlier work in publication PMC4560162, “Discovery of small molecule inhibitors of xyloglucan endotransglucosylase (XET) activity by high-throughput screening” (Phytochemistry, 2015).

This series has as its target PIM1 (an oncogene protein kinase). Conditions: ref Holder et al., 2007; cited from earlier work.

The structures appear in SMILES notation.

As usually defined, the IC50 is the concentration that gives 50% inhibition. For `O=c1c(O)c(-c2ccc(O)c(O)c2)oc2cc(O)c(O)c(O)c12` [quercetagetin, 3,3′,4′,5,6,7-hexahydroxyflavone], the IC50 was 340 nM.
